Assay outcomes: PubChem, Broad Institute
UUG fidelity: modulators of start codon recognition fidelity in yeast. S. cerevisiae UUG-firefly luciferase reporter, luminescence/redox ratio. activity score, % at 18.7 µM. 0.13% of 350,000 active. AID 602363;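 active = replicate mean at a twofold rise or more, about +100% in these data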;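 also: firefly luciferase made from a UUG start codon reports start codon fidelity; reporter light over untreated wells divided by growth signal over untreated wells; some hits fall short of that in this replicate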
Cneo AK release: causes C. neoformans cell lysis; adenylate kinase release luminescence, 4 h; normalised: neutral wells 0, clomiphene wells 100; lysis activity, % at 15 µM; actives 0.2% (n = 360,000); AID 651654;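 active = mean lysis activity across replicates of at least 80%, whatever share of replicates individually reach that level; inactive = mean lysis activity below 80%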
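Schedule: static 4 h at 37 °C with compound, 1 h detection; system: C. neoformans cells; benchmarks: Clomiphene as positive control; buffer or medium: fresh YPD medium; measure: luminescence rise reflecting yeast cell lysis; measured by: luminescent adenylate kinase detection reagent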
PGC1a acetyl inh: PGC1a acetylation modulation, inhibitor mode | U2OS PGC1a acetylation, AlphaScreen anti-acetyl-lysine; with virally co-expressed GCN5 acetyltransferase | inhibition, % at 15.6 µM | actives 0.17% (n = 350,000) | AID 651687;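 active = every replicate shows inhibition of at least 40%; inconclusive = mean inhibition at least 40% but some replicate below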;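 note: 0% = neutral control wells and 100% = positive control wells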
miR-122 sensor: inhibitors of miR-122 in Huh7 cells; activation (reporter increase), % at 12.5 µM; Huh7 miR-122 Renilla luciferase sensor, 48 h; neutral wells = 0, positive control = 100; actives 0.3% (n = 340,000);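 active = mean replicate activation score at least 90 and every replicate individually at or above 90; inconclusive = only one of the two criteria met; inactive = neither criterion met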;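 note: higher luciferase means less miR-122 activity so hits act as miR-122 inhibitors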
FN deposition inh: fibronectin deposition inhibition; AID 743247; AH1F fibroblasts, Alexa488-fibronectin deposition fluorescence, overnight; actives 0.086% (n = 350,000); inhibition, % at 12.6 µM;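 active = mean inhibition across replicates of 30% or more, regardless of how many single replicates reach that level; inconclusive = mean under 30% yet at least half of replicates reach 30%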;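 note: positive control wells lacked labelled fibronectin entirely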
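Assay system: AH1F fibroblasts / Quantity: 10000 cells per well / Medium: DMEM plus 2% serum, read in PBS / Reagent: labelled fibronectin 24 nM / Dosing: single dose, pinned / Times: 1 h cell attachment, overnight exposure to compound and label / Signal: fluorescence, ex 485 nm, em 525 nm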
HIV Env fusion: inhibitors of HIV Env-mediated cell fusion; AID 651610; inhibition, % at 12.3 µM; actives 1.1% (n = 360,000); HeLa-JRFL Env/CEM21 cell fusion, luciferase;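 active = mean replicate inhibition score of at least 50 and every replicate individually at or above 50; inconclusive = only one of the two criteria met; inactive = mean below 50 and not all replicates reaching 50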;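 note: 0% = plate neutral controls and 100% = maraviroc near 300 nM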
An asterisk follows results filed as active; i = inactive; ? = inconclusive; . = no result; ! = not confirmed by another sample; [ ] = dose if it differs, or a comment. Sampled rows, rich in hits. Any-hit rate of the full collection: about 1.5%.

Letters: A = UUG fidelity; B = Cneo AK release; C = PGC1a acetyl inh; D = miR-122 sensor; E = FN deposition inh; F = HIV Env fusion
1) Cn1c(=O)cc(OCCCC(=O)NCc2ccccn2)c2ccccc21
  A = -16; B = .; C = -2; D = 9; E = -11; F = -4

2) Cc1ccnc(NC(=O)CCCOc2cc(=O)n(C)c3ccccc23)c1
  A = -10; B = 2; C = .; D = 183*!; E = -9; F = i

3) Cc1ccc(NC(=O)C(NC2CCCc3ccccc32)c2ccccc2)c([N+](=O)[O-])c1 (stereo not given)
  A = 4; B = -3; C = -14; D = 20; E = -2; F = 86*

4) Cc1ccc(NC(=O)C(NC2CCCc3ccccc32)c2ccccc2)cc1Cl (stereo not given)
  A = 4; B = -2; C = .; D = 8; E = -5; F = -9

5) Cc1cc(C(=O)N/N=C/c2sccc2C)no1
  A = .; B = .; C = .; D = .; E = 4; F = 9

6) C[C@H](CO)N1C[C@H](C)[C@H](CN(C)Cc2ccc(C(F)(F)F)cc2)OCCCC[C@H](C)Oc2ccc(NC(=O)Cc3ccccc3)cc2C1=O
  A = -35; B = 2; C = -13; D = -12[16.7 µM]; E = .; F = 72*[16.7 µM]

7) C[C@@H]1CN([C@@H](C)CO)C(=O)c2cc(NC(=O)Cc3ccccc3)ccc2O[C@@H](C)CCCCO[C@@H]1CN(C)Cc1ccc(C(F)(F)F)cc1
  A = 21; B = 1; C = -17; D = -24[16.7 µM]; E = .; F = 31[16.7 µM]

8) C[C@H]1CCCCO[C@H](CN(C)Cc2ccc(C(F)(F)F)cc2)[C@@H](C)CN([C@@H](C)CO)C(=O)c2cc(NC(=O)Cc3ccccc3)ccc2O1
  A = 5; B = 7; C = 21; D = -8[16.7 µM]; E = -16; F = ?

9) C[C@@H]1CN([C@@H](C)CO)C(=O)c2cc(NC(=O)Cc3ccccc3)ccc2O[C@@H](C)CCCCO[C@H]1CN(C)Cc1ccc(C(F)(F)F)cc1
  A = 10; B = 2; C = 15; D = -8[16.7 µM]; E = .; F = 64*[16.7 µM]

10) C[C@@H]1CN([C@H](C)CO)C(=O)c2cc(NC(=O)Cc3ccccc3)ccc2O[C@@H](C)CCCCO[C@H]1CN(C)Cc1ccc(C(F)(F)F)cc1
  A = 88; B = 4; C = 11; D = -31[16.7 µM]; E = .; F = 73*[16.7 µM]

11) C[C@@H]1CCCCO[C@@H](CN(C)Cc2ccc(C(F)(F)F)cc2)[C@H](C)CN([C@H](C)CO)C(=O)c2cc(NC(=O)Cc3ccccc3)ccc2O1
  A = 19; B = 0; C = -4; D = -10[16.7 µM]; E = .; F = 23[16.7 µM]

12) COc1nc(N(C)C)nc(N(C#N)CCOC(C)=O)n1
  A = .; B = .; C = 6; D = .; E = 0; F = 33

13) CCCN(CC(=O)Nc1ccc(F)c(F)c1F)C(=O)c1ccc2c(=O)n3c(nc2c1)CCC3
  A = 16; B = 5; C = .; D = .; E = -19; F = -6

14) COc1ccc(CN2CCN(C(=O)C3CCN(S(=O)(=O)c4cccs4)CC3)CC2)c(OC)c1OC
  A = .; B = .; C = 0; D = .; E = -3; F = 2

15) Cc1cc(C)cc(NC(=O)Nc2cc(S(=O)(=O)N(C)C)ccc2C)c1
  A = 2; B = -1; C = 3; D = 12; E = 4; F = 16

(further entries)
Letters: A = UUG fidelity; B = Cneo AK release; C = PGC1a acetyl inh; D = miR-122 sensor; E = FN deposition inh; F = HIV Env fusion
16) COc1ccc(S(=O)(=O)Nc2cc(C)cc(C)n2)c2ccccc12
  A = -11; B = -2; C = -5; D = -31; E = .; F = .

17) CCOc1ccc(NS(=O)(=O)c2ccc(OCC)c3ncccc23)cc1
  A = -4; B = 1; C = 1; D = 139*; E = .; F = 30

18) CCOc1ccc(S(=O)(=O)Nc2cc(C)ccn2)c2ccccc12
  A = 11; B = 2; C = -6; D = 237*; E = 26; F = -3

19) O=C(Nc1ccccc1N1CCOCC1)[C@@H]1O[C@H](CO)[C@H](O)[C@H](O)[C@H]1O
  A = -9; B = 0; C = -10; D = -1; E = -7; F = -9

20) CC1CCN(C(=S)c2ccc(O)cc2)CC1
  A = -23; B = -3; C = .; D = 248*; E = -4; F = -33

21) Oc1ccc(C(=S)N2CCCC2)cc1
  A = -15; B = -1; C = 24; D = -2; E = 3; F = -17

22) CC(=O)c1c(C)[nH]c(C(=O)OCc2ccccc2)c1C
  A = 1; B = -3; C = .; D = .; E = 3; F = 3

23) CC(=O)c1c(C)[nH]c(C(=O)OCCCCN2C(=O)c3ccccc3C2=O)c1C
  A = -18; B = 1; C = .; D = -34; E = 1; F = 98*

24) C=CCNC(=O)/C(C#N)=C/c1c(N(Cc2ccccc2)Cc2ccccc2)nc2ccccn2c1=O
  A = -5; B = -2; C = .; D = 36; E = -2; F = 23

25) N#C/C(=C\c1c(N(Cc2ccccc2)Cc2ccccc2)nc2ccccn2c1=O)C(N)=O
  A = 0; B = 7; C = .; D = .; E = -2; F = 58*

26) Cn1ncc(Cl)c1C(=O)Nc1cccc(Cl)c1
  A = -13; B = 0; C = 2; D = 4; E = 0; F = -33

27) C[C@H](CO)N1C[C@H](C)[C@H](CN(C)C(=O)Nc2ccccc2)Oc2c(NC(=O)c3ccncc3)cccc2C1=O
  A = -8; B = 1; C = -6; D = -4[16.7 µM]; E = .; F = .

28) C[C@@H]1CN([C@@H](C)CO)C(=O)c2cccc(NC(=O)c3ccncc3)c2O[C@H]1CN(C)C(=O)Nc1ccccc1
  A = 12; B = 109*; C = -9; D = 0[16.7 µM]; E = .; F = .

29) C[C@@H]1CN([C@H](C)CO)C(=O)c2cccc(NC(=O)c3ccncc3)c2O[C@H]1CN(C)C(=O)Nc1ccccc1
  A = 13; B = 104*; C = 3; D = 20[16.7 µM]; E = .; F = .

30) C[C@@H]1CN([C@H](C)CO)C(=O)c2cccc(NC(=O)c3ccncc3)c2O[C@H]1CN(C)C(=O)Nc1ccc(C(F)(F)F)cc1
  A = 12; B = 82*; C = -5; D = -3[16.7 µM]; E = .; F = 20[16.7 µM]

Record cards (already shown):
Cc1cc(C(=O)N/N=C/c2sccc2C)no1 in the list: UUG fidelity: .; Cneo AK release: .; PGC1a acetyl inh: .; miR-122 sensor: .; FN deposition inh: 4; HIV Env fusion: 9
CCOc1ccc(NS(=O)(=O)c2ccc(OCC)c3ncccc23)cc1 in the list: UUG fidelity: -4; Cneo AK release: 1; PGC1a acetyl inh: 1; miR-122 sensor: 139*; FN deposition inh: .; HIV Env fusion: 30

(further entries)
Letters: A = UUG fidelity; B = Cneo AK release; C = PGC1a acetyl inh; D = miR-122 sensor; E = FN deposition inh; F = HIV Env fusion
31) C[C@@H]1CN([C@H](C)CO)C(=O)c2cccc(NC(=O)c3ccncc3)c2O[C@@H]1CN(C)C(=O)Nc1ccc(F)cc1
  A = -11; B = 0; C = 5; D = 15[16.7 µM]; E = 7; F = .

32) COCC(=O)N(C)[C@H]1C[C@H]2c3[nH]c4ccccc4c3CCN2C(=O)[C@H]1[C@H](C)O
  A = 10; B = 1; C = 1; D = -4; E = 14; F = -294

33) CCOC(=O)c1c(NC(=O)C(C)N2CCN(C(=O)c3ccco3)CC2)sc2c1CCCC2 (stereo not given)
  A = -2; B = 3; C = 1; D = 2; E = -12; F = 56*

34) O=C(Nc1sc2c(c1C(=O)O)CCCCC2)c1ccco1
  A = -8; B = -5; C = -5; D = 208*; E = 0; F = -105

35) CN(C)C(=O)c1c(NC(=O)c2ccco2)sc2c1CCCCC2
  A = 3; B = 2; C = 2; D = -2; E = .; F = .

36) CCc1c(C)nc(N2CCOCC2)[nH]c1=O
  A = -17; B = 0; C = .; D = -3; E = .; F = -27

37) COc1cc(C(C[N+](=O)[O-])c2c(-c3ccccc3)cc3ccccn23)cc(OC)c1OC (stereo not given)
  A = -12; B = 0; C = .; D = -1; E = -11; F = -52

38) CCCCCCCCCCCCCCCC(=O)OCC1OC(n2ccc(N)nc2=O)C(O)C1O (stereo not given)
  A = .; B = .; C = -1; D = 2; E = -7; F = 75*

39) Nc1ccn(C2OC(CO)C(O)C2F)c(=O)n1 (stereo not given)
  A = -5; B = 0; C = 12; D = -2; E = -4; F = 75*

40) CN1CCN(CCCNC(=O)C2CC(=O)N(C3CCCCC3)C2)CC1 (stereo not given)
  A = 11; B = -4; C = -2; D = 7; E = .; F = .

41) O=C(NCCCN1CCC(Cc2ccccc2)CC1)C1CC(=O)N(C2CCCCCC2)C1 (stereo not given)
  A = 10; B = 9; C = -4; D = -5; E = .; F = 55*

42) O=S(=O)(NCCc1ccccc1)c1ccc(F)cc1Br
  A = -7; B = 0; C = -1; D = ?; E = -2; F = -21

43) O=S(=O)(NCCc1ccc(F)cc1)c1cc(C(F)(F)F)ccc1Br
  A = -12; B = 0; C = -8; D = 127*; E = 4; F = 38
